Reference: ChEMBL document CHEMBL1153096, “Properly substituted 1,4-dioxane nucleus favours the selective M3 muscarinic receptor activation” (Bioorg Med Chem, 2009)

By UniProt entry, the sequences of proteins in these tests, tags left out. Where a name states a change or a piece, a line headed by the entry shows the natural chain unless it says otherwise.
UniProt P11229: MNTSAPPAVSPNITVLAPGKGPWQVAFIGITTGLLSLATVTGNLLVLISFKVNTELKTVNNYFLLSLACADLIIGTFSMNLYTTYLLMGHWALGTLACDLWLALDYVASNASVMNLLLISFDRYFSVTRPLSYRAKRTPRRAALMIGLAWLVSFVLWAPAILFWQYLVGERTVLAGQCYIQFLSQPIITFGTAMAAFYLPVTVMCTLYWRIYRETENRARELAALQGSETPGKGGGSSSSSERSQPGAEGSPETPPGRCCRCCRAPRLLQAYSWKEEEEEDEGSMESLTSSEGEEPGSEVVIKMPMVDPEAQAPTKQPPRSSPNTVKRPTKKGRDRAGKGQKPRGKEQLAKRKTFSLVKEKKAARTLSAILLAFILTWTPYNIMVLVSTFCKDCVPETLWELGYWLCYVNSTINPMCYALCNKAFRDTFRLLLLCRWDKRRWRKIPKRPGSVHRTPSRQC
UniProt P20309, whole entry: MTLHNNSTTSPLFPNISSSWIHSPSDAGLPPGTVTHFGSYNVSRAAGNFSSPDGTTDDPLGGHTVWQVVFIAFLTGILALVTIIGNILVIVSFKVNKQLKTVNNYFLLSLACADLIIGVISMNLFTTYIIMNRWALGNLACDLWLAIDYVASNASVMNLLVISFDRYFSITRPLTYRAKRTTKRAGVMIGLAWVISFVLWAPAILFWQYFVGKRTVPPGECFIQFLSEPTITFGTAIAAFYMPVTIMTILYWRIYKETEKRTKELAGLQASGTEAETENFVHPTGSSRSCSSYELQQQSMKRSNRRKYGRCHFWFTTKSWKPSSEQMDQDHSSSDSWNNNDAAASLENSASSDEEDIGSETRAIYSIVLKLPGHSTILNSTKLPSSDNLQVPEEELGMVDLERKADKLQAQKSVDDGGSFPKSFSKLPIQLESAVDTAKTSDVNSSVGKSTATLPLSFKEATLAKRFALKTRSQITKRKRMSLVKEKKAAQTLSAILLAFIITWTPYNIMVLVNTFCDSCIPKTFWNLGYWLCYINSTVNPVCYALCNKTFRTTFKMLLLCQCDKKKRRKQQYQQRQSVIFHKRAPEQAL

Experiments:
[1] = target: Muscarinic acetylcholine receptor M1 (Homo sapiens, UniProt P11229); experiment: Displacement of [3H]NMS from human muscarinic M1 receptor expressed in CHO cells by microplate scintillation counting; format: cell-based
[2] = target: Muscarinic acetylcholine receptor M3 (Homo sapiens, UniProt P20309); experiment: Displacement of [3H]NMS from human muscarinic M3 receptor expressed in CHO cells by microplate scintillation counting; format: cell-based

Structure (SMILES)	pKi [1]	pKi [2]
C[C@H]1COC[C@@H](C[N+](C)(C)C)O1.[I-] (relative stereo)	4.52	5.12
C[C@@H]1COC[C@@H](C[N+](C)(C)C)O1.[I-]	< 4.00	4.45

pKi: −log10 of the molar value.
